Reference: patent US20170217976A1, “6-(AMINO ACID)-MORPHINAN DERIVATIVES IN COMBINATION WITH PERMEATION […] FOR USE AS AN ORALLY, […], TRA[…] NASALLY AD[…]” (C[…], priority 2014, published 2017)

Amino acid sequences for entries named in this document (tags omitted).
UniProt P33535, whole entry: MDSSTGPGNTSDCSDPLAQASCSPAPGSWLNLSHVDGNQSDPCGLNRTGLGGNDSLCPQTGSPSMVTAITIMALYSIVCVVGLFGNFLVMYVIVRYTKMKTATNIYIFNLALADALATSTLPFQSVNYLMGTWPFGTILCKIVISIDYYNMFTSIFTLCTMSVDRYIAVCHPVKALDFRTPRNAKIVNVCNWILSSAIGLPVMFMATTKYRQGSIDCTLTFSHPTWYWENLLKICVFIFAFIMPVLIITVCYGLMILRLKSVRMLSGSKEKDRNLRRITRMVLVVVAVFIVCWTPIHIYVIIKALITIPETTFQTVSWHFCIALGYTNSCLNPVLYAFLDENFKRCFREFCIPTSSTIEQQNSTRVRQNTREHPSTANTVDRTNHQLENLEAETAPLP

Molecular target: T1, MOR (Rattus norvegicus, UniProt P33535)
T1 construct: from tissue
Assay: Opioid receptor binding, MOR, rat brain membranes

[1] = Binding Ki (nM) MOR, in vitro binding assay, rat brain membranes
[2] = Binding Ki MOR, Table 1-4, rat brain membranes

Structure (SMILES): COC12CCC(NC(C)C(=O)O)C3Oc4c(O)ccc5c4C31CCN(C)C2C5 (single isomer, unassigned) [Compound 1]
- Ki [1]: 0.77 nM
- Ki [2]: 0.77 nM

Structure (SMILES): COC12CCC(NC(C)C(=O)O)C3Oc4c(O)ccc5c4C31CCN(C)C2C5 (single isomer, unassigned) [Compound 2]
- Ki [1]: 1.9 nM
- Ki [2]: 1.9 nM

Structure (SMILES): COC12CCC(NC(C)C(=O)O)C3Oc4c(O)ccc5c4C31CCN(C)C2C5 (single isomer, unassigned) [Compound 53]
- Ki [2]: 0.69 nM

Structure (SMILES): COC12CCC(NC(C)C(=O)O)C3Oc4c(O)ccc5c4C31CCN(C)C2C5 (single isomer, unassigned) [Compound 54]
- Ki [2]: 1.48 nM
